{
  "source": "patent US20240245799A1",
  "about": "“PREPARATION METHOD FOR ANTIBODY-DRUG CONJUGATE, AND APPLICATION” (priority 2021, published 2024)",
  "origin": "cited, not measured here",
  "key": {"[1]": {"tested_on": "breast cancer with low HER2 expression", "settings": "DS8201-A-J101, breast cancer with low HER2 expression; cited from earlier work"}, "[2]": {"tested_on": "breast cancer", "settings": "DESTINY-Breast03; cited from earlier work"}, "[3]": {"settings": "in vivo; cited from earlier work"}},
  "data": [
    {"substance": "Enhertu", "values": [
      {"measurement": "confirmed objective response rate (ORRs)", "setting": "[1]", "value": 37.0, "unit": "%"},
      {"measurement": "confirmed objective response rate (ORR)", "setting": "[2]", "value": 79.7, "unit": "%"},
      {"measurement": "toxic side effects", "setting": "[3]", "value": "side effects such as pneumonia and interstitial lung disease"}
    ]}
  ]
}
